The chains behind the UniProt entries cited, without tags or fusion partners.
UniProt P14902, whole entry: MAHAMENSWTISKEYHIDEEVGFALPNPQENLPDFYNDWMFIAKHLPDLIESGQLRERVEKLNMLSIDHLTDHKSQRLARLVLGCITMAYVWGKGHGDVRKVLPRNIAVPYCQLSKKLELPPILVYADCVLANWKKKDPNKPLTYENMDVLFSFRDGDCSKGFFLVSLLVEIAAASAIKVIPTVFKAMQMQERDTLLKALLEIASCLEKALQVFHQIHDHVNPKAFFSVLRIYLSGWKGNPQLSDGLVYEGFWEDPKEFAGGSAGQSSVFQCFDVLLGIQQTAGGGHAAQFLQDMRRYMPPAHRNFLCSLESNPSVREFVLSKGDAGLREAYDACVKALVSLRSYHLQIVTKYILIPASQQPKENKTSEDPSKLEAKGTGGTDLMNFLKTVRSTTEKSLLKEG
UniProt P48775, whole entry: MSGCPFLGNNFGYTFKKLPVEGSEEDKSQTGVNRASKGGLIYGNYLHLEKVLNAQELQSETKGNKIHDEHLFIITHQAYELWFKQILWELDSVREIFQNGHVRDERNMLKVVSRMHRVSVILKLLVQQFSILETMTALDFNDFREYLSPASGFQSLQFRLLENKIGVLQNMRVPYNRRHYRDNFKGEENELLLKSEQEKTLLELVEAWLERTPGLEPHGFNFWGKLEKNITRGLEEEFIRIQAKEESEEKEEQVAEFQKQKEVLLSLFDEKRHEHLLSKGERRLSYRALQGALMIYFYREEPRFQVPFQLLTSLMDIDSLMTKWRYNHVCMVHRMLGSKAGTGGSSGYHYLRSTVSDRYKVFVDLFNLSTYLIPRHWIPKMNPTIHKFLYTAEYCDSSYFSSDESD

In US10590086B2, “Pharmaceutical compound” (IOmet Pharma Ltd., priority 2014, dated 2020):

Legend:
IDO [1] = biological target: T1, IDO (Homo sapiens, UniProt P14902); experiment: hIDO biochemical coupled assay; settings: 45 μM L-tryptophan, 17 minutes, room temperature
IDO [2] = biological target: T1, IDO; experiment: SKOV3 kynurenine cell-based assay (IDO induced by IFN-γ); settings: SKOV3 human ovarian adenocarcinoma cells, 500 ng/ml IFN-γ, 48 hours, 500 μM L-tryptophan
TDO [3] = biological target: T2, TDO (Homo sapiens, UniProt P48775); experiment: A172 kynurenine cell-based assay; settings: A172 human glioblastoma cells, 48 hours, 500 μM L-tryptophan
TDO [4] = biological target: T2, TDO; experiment: hTDO biochemical coupled assay; settings: 330 μM L-tryptophan, 17 minutes, room temperature

SMILES	hIDO biochemical assay pIC50 (IDO [1])	SKOV3 Kynurenine cell based assay pIC50 (IDO [2])	A172 Kynurenine cell based assay pIC50 (TDO [3])	hTDO biochemical assay pIC50 (TDO [4])
OC(CC1CCCCC1)c1cc(Cl)cc2[nH]ncc12 (centres unmarked)	+/− (+/− = pIC50 < 4.00)	+ (+ = pIC50 4.00-4.49)	+++ (+++ = pIC50 ≥ 5.50)	–
COCCN1C(=O)NC2(CCN(c3cc(Cl)cc4[nH]ncc34)CC2)C1=O	+++ (+++ = pIC50 ≥ 5.50)	+++ (+++ = pIC50 ≥ 5.50)	+++ (+++ = pIC50 ≥ 5.50)	+++ (+++ = pIC50 ≥ 5.50)
O=C(CCF)N1CCC(c2cc(Cl)cc3[nH]ncc23)CC1	–	–	+++ (+++ = pIC50 ≥ 5.50)	–
